Test results reported in patent US20240293364A1, “BIOMARKERS FOR CANCER THERAPY USING MDM2 ANTAGONISTS” (OTSUKA PHARMACEUTICAL CO., LTD., priority 2021, published 2024).

Key:
SJSA-1 [1] = assay: SJSA-1 cell viability, Protocol B (CellTiter-Glo)
SJSA-1 [2] = assay: SJSA-1 growth inhibition, Protocol A (sulphorhodamine B); details: read-out: SJSA-1 IC50 (μM) (Protocol A)
[3] = read-out: SJSA1 IC50 (μM) (Protocol B), Protocol B

Compound | IC50 (SJSA-1 [1]; [3]) [µM] | further results
CC[C@@](O)(c1cc(F)c2c(c1)C(=O)N(Cc1ccc(C#N)cc1)[C@@]2(O[C@H]1C[C@@H](O)C1)c1ccc(Cl)cc1)C1CCN(C)CC1 (relative stereo) [Example 130, 4-{[(1R)-1-(4-chlorophenyl)-7-fluoro-5-[(1S)-1-hydroxy-1-(1-methylpiperidin-4-yl)propyl]-3-oxo-1-[cis-3-hydroxycyclobutoxy]-2,3-dihydro-1H-isoindol-2-yl]methyl}benzonitrile] | 0.17 | 
CC[C@@](O)(c1cc(F)c2c(c1)C(=O)N(Cc1ccc(C#N)cc1)[C@@]2(O[C@H]1C[C@@H](O)C1)c1ccc(Cl)cc1)C1CCN(C)CC1 [Example 130, 4-{[(1R)-1-(4-chlorophenyl)-7-fluoro-5-[(1S)-1-hydroxy-1-(1-methylpiperidin-4-yl)propyl]-3-oxo-1-[cis-3-hydroxycyclobutoxy]-2,3-dihydro-1H-isoindol-2-yl]methyl}benzonitrile] |  | IC50 (SJSA-1 [1]; Homo sapiens, SJSA-1, 72 h, read-out: SJSA1 IC50 (μM) (Protocol B), 72 hrs, CellTiter-Glo): 0.23 µM
CCC(O)(c1cc(F)c2c(c1)C(=O)N(Cc1ncc(C#N)cn1)[C@@]2(O[C@H]1CCOC1)c1ccc(Cl)cc1)c1cn(C)cn1 (some centres unmarked) [Example 370] | 3.5 | 
CCC(O)(CN1CCN(C)CC1)c1cc(F)c2c(c1)C(=O)N(Cc1ncc(Cl)cn1)[C@@]2(O[C@H]1CCOC1)c1ccc(Cl)cc1 (some centres unmarked) [Example 523] | 1.5 | 
(3S)-3-(4-chlorophenyl)-3-[(1R)-1-(4-chlorophenyl)-7-fluoro-5-[1-hydroxy-1-(pyridin-2-yl)propyl]-1-methoxy-3-oxo-2,3-dihydro-1H-isoindol-2-yl] propanoic acid [Example 128] |  | IC50 (SJSA-1 [2]): 2.4 µM
